Source: PubChem BioAssay (NCI)
The list shows a part of the results, in another mix than the full data. The source holds several records for some structures; these can differ, active in one and inactive in another. Calls of active or inactive are those of the source. No stated cut-off is given here; in the data, active means growth inhibition above about 70%; inactive means the rest.

Assay: NCI Yeast Anticancer Drug Screen. Data for the rad18 strain (AID 177)
Details: S. cerevisiae rad18 mutant growth inhibition, hits give high values
Experimental: Growth inhibition of yeast strains with defined genetic alterations is measured as a screen for potential anti-cancer activity. Selected strains with alterations in DNA damage repair or cell cycle control were exposed to compounds and growth inhibition was measured relative to vehicle treated controls. The strain used in this assay is rad18

SMILES	growth inhibition (at 1.2 µM)	growth inhibition (at 3.7 µM)	growth inhibition (at 11.0 µM)	growth inhibition (at 33.0 µM)	growth inhibition (at 100.0 µM)
Cn1cnc([N+](=O)[O-])c1C[N+](C)(CCCl)CCCl	inactive: 11%	inactive: 54%	active: 88%	active: 93%	active: 94%
Cc1ccc([N+](=O)[O-])c(C[N+](C)(CCCl)CCCl)c1	inactive: 25%	active: 79%	active: 94%	active: 94%	active: 96%
Cc1cccc(C[N+](C)(CCCl)CCCl)c1[N+](=O)[O-]	inactive: 30%	active: 78%	active: 94%	active: 95%	active: 96%
COc1ccc(C[N+](C)(CCCl)CCCl)c([N+](=O)[O-])c1	active: 70%	active: 73%	active: 86%	active: 89%	active: 92%
COc1ccc([N+](=O)[O-])c(C[N+](C)(CCCl)CCCl)c1	inactive: 11%	inactive: 28%	active: 74%	active: 94%	active: 96%
ClCCN1CCCCC1CCl (stereo not given)	inactive: 7%	inactive: 31%	active: 83%	active: 96%	active: 97%
